# Laboratory results from patent US7989417B2, “Linkers for radiopharmaceutical compounds” (Bracco Imaging S.p.A., priority 2003, dated 2011).
# Target: human serum albumin (Homo sapiens, UniProt P02768)
# Assay: Binding to human serum albumin by ultrafiltration
# Details: 1 nM insulin solution in 0.6 mM human serum albumin, spiked with 125I-labeled insulin
# Experimental: Binding to human serum albumin is determined by ultrafiltration according to Whitlam J. B. & Brown K. F.: J. Pharm. Sci. 70, 146-150, 1981, applying 1 nM bovine insulin solution in 0.6 mM human serum albumin, spiked with ^125I-labeled insulin. 95% of the insulin is bound. It is evident that such binding to albumin will reduce the renal elimination of the modified insulin (Compounds B and D) relative to that of native insulin.
substance,measurement,value
"Bovine 1-[[(3β,5β,12α)-23-[(1,1-dimethyl)ethoxycarbonyl]-12-hydroxy-24-norcholan-3-yl]amino]carbonyl-3,5-bis[[4-(insulin-N^εB29-yl)-1,4-dioxobutyl]amino]benzene [Compound D]",bound to human serum albumin,95%
